Results reported in PubChem BioAssay AID485349 (National Center for Advancing Translational Sciences (NCATS), 2010).
The list shows a part of the results, in another mix than the full data. Some tests of the compounds listed are not included; inactive here does not mean inactive elsewhere. The source made the active and inactive calls. The call rests on the fitted dose curve; in most records, active means well fitted activation curve with a large enough effect; inconclusive means small, poorly fitted or top-dose-only effect; inactive means no such curve, though single readings can be large or run the other way.

Assay: qHTS Assay for Identifying a Potential Treatment of Ataxia-Telangiectasia; further: % of control where 0% means no effect; nearly all actives have a fitted effect of over 45% in size
Conditions: […] A-T fibroblasts, KAP-1 phosphorylation AlphaLISA, neocarzinostatin DNA damage 30 min before lysis; at 57.5 µM (top of the series)
Excerpt: NIH Chemical Genomics Center [NCGC] NIH Molecular Libraries Probe Centers Network [MLPCN] MLPCN Grant: MH089030-01 Assay Submitter (PI): Wei Zheng and Yosef Shiloh Ataxia-telangiectasia (A-T) is a devastating and progressive disease for which, there is no cure. Although A-T is a multisystem disease, it is stereotyped characterized by its neurological symptoms such as truncal ataxia, due to cerebellar cortical degeneration of the Purkinje and granule cells. Other symptoms of A-T are telangiectasias (dilated blood vessels), primary immunodeficiency, marked sensitivity to ionizing radiation (IR), chromosomal instability and predisposition to cancer. The underlying genetic cause of A-T is null mutations in the ATM (A-T mutated) gene. ATM is a nuclear serine/threonine kinase that functions as a master regulator of the cellular responses to double strand breaks (DSBs) in the DNA. Upon activation by DSBs, ATM phosphorylates a plethora of down stream targets, including KAP-1 on […]. KAP-1 phosphorylation occurs shortly in response to DSBs and mediates global chromatin relaxation, which facilitates DSB repair. To screen for small molecules that will compensate for the loss of ATM in cells derived from A-T patients, we monitored KAP-1 phosphorylation as a readout for ATM-like activity using an AlphaLISA assay.
qHTS Assay Protocol: Step,Parameter,Value,Description 1. Cell Plating, 3 ul, 500 cells/well in OPTI-MEM, 1% FBS, 1% Pen/Strep 2. Incubation, 16-24 hr, 37C, 5% CO2, 95% humidity 3. Library compounds, 23 nl, 76.7 - 0.61uM dilution series final concentration 4. Incubation, 60 min, 37C, 5% CO2, 95% humidity 5. Reagent, 1 ul, 1600 ng/ml NCS in PBS + 0.05% BSA + 0.005% Tween 20 6. Incubation, 30 min, 37C, 5% CO2, 95% humidity 7. Reagent, 1 ul, Premixed detection reagents and lysis buffer 8. Reagent, 1 ul, 0.6% Antifoam A 9. Incubation, 6 hr, 25C, 95% humidity 10. Readout, EnVision, EnVision plate reader. AlphaScreen 1536-well protocol Cells were plated using medium-binding white solid-bottom tissue culture treated Kalypsys plates. Multidrop dispense of 3 uL of […] (hTERT immortalized A-T patient fibroblast cells). Detection reagent and lysis buffer was 3.75nM Rab-a-pKAP1 antibody bound to 75 ng/ul AlphaScreen SA donor bead, 3.75 nM Biot-M-a-KAP1 antibody bound to AlphaLISA protein A acceptor bead, 0.5x protease inhibitor cocktail and 0.25x PerkinElmer lysis buffer. EnVision protocol for 1536-well AlphaScreen read (30ms excitation, 100ms read), about 10 min/plate.

Q: For `COc1ccc(Br)c(C(=O)NCC2(N3CCCCC3)CCCCC2)c1`, which activation is on record?
A: The activation was inactive: -11.3%.

Q: For `CN(C)c1cccc(C(=O)NCC2(N(C)C)CCCCC2)c1`, which activation is on record?
A: The activation was inactive: 2.56%.

Q: With `CC(C)Oc1ccc(C(=O)NCC2(N(C)C)CCCCC2)cc1` as the molecule, how does the activation read?
A: The activation was inactive: 29.4%.

Q: Which activation does the source give for `O=C(OC1CN2CCC1CC2)C(CO)(c1ccccc1)c1ccccc1` (centres undefined) here?
A: Its activation is inactive: 5.37%.

Q: With `COc1ccc(Cl)cc1C(=O)NCC1(N(C)C)CCCCC1` as the molecule, how does the activation read?
A: Its activation is inactive: 3.35%.

Q: Which activation does the source give for `COc1cccc(C(=O)NCC2(N3CCCCC3)CCCCC2)c1` here?
A: The activation was inactive: 4.27%.

Q: With `O=C(NCC1(N2CCCCC2)CCCCC1)c1cccc(Cl)c1` as the molecule, how does the activation read?
A: The activation was inactive: 1.19%.

Q: For `CN(C)C1(CNC(=O)c2ccc(Br)cc2)CCCCC1`, which activation is on record?
A: The activation was inactive: -2.3%.

Q: With `COc1cc(C(=O)NCC2(N(C)C)CCCCC2)c([N+](=O)[O-])cc1OC` as the molecule, how does the activation read?
A: The activation was inactive: 20%.

Q: With `O=C(NCC1(N2CCCCC2)CCCCC1)c1cc(F)c(F)cc1Cl` as the molecule, how does the activation read?
A: Its activation is inactive: 2.64%.

Q: With `C=CCN1CCN(CCOC(=O)C(O)(c2ccccc2)c2ccccc2)CC1` as the molecule, how does the activation read?
A: Its activation is inactive: -4.53%.

Q: Which activation does the source give for `O=C(NCC1(N2CCCCC2)CCCCC1)c1cccc(Br)c1` here?
A: Its activation is inactive: -0.584%.

Q: With `CCN1CCCC(OC(=O)C2(O)c3ccccc3C=Cc3ccccc32)C1` (centres undefined) as the molecule, how does the activation read?
A: Its activation is inactive: 19.8%.

Q: With `Cc1cc(C(=O)NCC2(N3CCCCC3)CCCCC2)ccc1[N+](=O)[O-]` as the molecule, how does the activation read?
A: The activation was inactive: 2.92%.

Q: With `COc1ccc(C(=O)NCC2(N(C)C)CCCCC2)cc1` as the molecule, how does the activation read?
A: The activation was inactive: 5.43%.

Q: For `CN(C)c1ccc(C(=O)NCC2(N(C)C)CCCCC2)cc1`, which activation is on record?
A: The activation was inactive: 11%.

Q: Which activation does the source give for `CN(C)C1CCCC1OC(=O)C(O)(c1ccccc1)c1ccccc1` (centres undefined) here?
A: The activation was inactive: -1.66%.

Q: Which activation does the source give for `Cc1ccccc1C(=O)NCC1(N2CCCCC2)CCCCC1` here?
A: Its activation is inactive: -0.244%.

Q: Which activation does the source give for `CC(C)N1C(=O)CC2(CCN(CCOC(=O)C(O)(c3ccccc3)c3ccccc3)CC2)C1=O` here?
A: Its activation is inactive: -3.79%.

Q: With `COc1cc(SC)ccc1C(=O)NCC1(N(C)C)CCCCC1` as the molecule, how does the activation read?
A: Its activation is inactive: -16.7%.

Q: For `CCN(CC)CC(C)C(C)OC(=O)C(O)(c1ccccc1)c1ccccc1` (centres undefined), which activation is on record?
A: The activation was inactive: 11.5%.

Q: For `Cc1ccc(C(=O)NCC2(N3CCCCC3)CCCCC2)cc1`, which activation is on record?
A: Its activation is inactive: -4.6%.

Q: For `O=C(NCC1(N2CCCCC2)CCCCC1)c1cc([N+](=O)[O-])ccc1Cl`, which activation is on record?
A: Its activation is inactive: -3.3%.

Q: For `CN1[C@@H]2CC[C@H]1CC(OC(=O)C(O)(c1ccccc1)c1ccccc1)C2` (some centres undefined), which activation is on record?
A: The activation was inactive: -2.6%.
